# Test system: U937 cells
# Assay: Human U937 cellular necroptosis assay
# Type: cell-based
# Conditions: U-937; U937 cells stimulated with 25 ng/mL human TNFalpha and 25 μM z-VAD-FMK; 22 hr; Cell Titer-Glo viability
# Procedure: Human U937 Cellular Necroptosis Assay
# The human monocytic cell line U937 (CRL-1593.2) may be purchased from ATCC. The cells are routinely maintained in RPMI-1640 Medium (Gibco, Catalog #11875-093) supplemented with 10% heat inactivated fetal bovine serum (Gibco, Catalog #16140-071), 100 units/mL penicillin and 100 μg/mL streptomycin (Gibco, Catalog #15140-122), in a humidified incubator (37° C., 5% CO2). For the assay, cells are resuspended in RPMI-1640 phenol red free Media (Gibco, Catalog #11835-030) supplemented with 10% fetal bovine serum (Sigma, Catalog #F2442), 100 units/mL penicillin and 100 ug/mL streptomycin. Cells are stimulated with 25 ng/mL human TNFalpha (Cell Sciences, Catalog #CSI15659B) and 25 μM z-VAD-FMK (R&D Systems, Catalog #FMK001) followed by seeding 5000 cells per well in a volume of 40 μL to a white, CulturPlate-384 (Perkin Elmer, Catalog #6007680). Stock solutions of the test compounds are prepared in 100% DMSO (Sigma, Catalog #D2650) and serially diluted 1:3 using 100% DMSO. Compounds are additionally diluted 1:40 in assay medium, and 10 μL/well was transferred to the plate. […] After 22 hr, viability is assessed with the addition of 20 μL of Cell Titer-Glo 2.0 (Promega, Catalog #G9243). […] Luminescence is measured using a PerkinElmer Envision™ plate reader. IC50 values are calculated using a four-parameter logistic curve fit using Genedata Screener software. […]
smiles,measurement,value
"C[C@H](c1cccc(C#N)c1)n1cnc(C(=O)Nc2cccc(Cl)c2F)n1 (single isomer, unassigned) [Example 56a]",IC50,1380 nM

# — patent publication US11718612B2, “Inhibitors of receptor interacting protein kinase I for the treatment of disease” (Board of Regents, The University of Texas System, priority 2019, dated 2023)
